The values that follow come from patent US11773129B2, “Methods of preventing or treating atherosclerosis with inhibitors of specific isoenzymes of human neuraminidase” (THE GOVERNORS OF THE UNIVERSITY OF ALBERTA, priority 2017, dated 2023).

The test system of this experiment is NEU1, NEU2, NEU3, NEU4. As to the kind of experiment: Isoenzyme specificity/selectivity from 4MU-NANA IC50 across the four human neuraminidases. The following applies: isoenzyme(s) the compound is specific for; dual (bispecific) when ratio of IC50 is about 3 or less. The experiment is classed as biochemical.

Regarding `CC(=O)N[C@H]1[C@H]([C@H](O)[C@H](O)Cn2cc(CO)nn2)OC(C(=O)O)=C[C@@H]1O`, the Target result is “NEU4”.
